Measured values taken from ChEMBL document CHEMBL5335795, “Development of potent isoflavone-based formyl peptide receptor 1 (FPR1) antagonists and their effects in gastric cancer cell models” (Eur J Med Chem, 2023).

Target: T1, N-formyl peptide receptor 2 (Homo sapiens) (UniProt P25090)
T1 sequence (whole entry): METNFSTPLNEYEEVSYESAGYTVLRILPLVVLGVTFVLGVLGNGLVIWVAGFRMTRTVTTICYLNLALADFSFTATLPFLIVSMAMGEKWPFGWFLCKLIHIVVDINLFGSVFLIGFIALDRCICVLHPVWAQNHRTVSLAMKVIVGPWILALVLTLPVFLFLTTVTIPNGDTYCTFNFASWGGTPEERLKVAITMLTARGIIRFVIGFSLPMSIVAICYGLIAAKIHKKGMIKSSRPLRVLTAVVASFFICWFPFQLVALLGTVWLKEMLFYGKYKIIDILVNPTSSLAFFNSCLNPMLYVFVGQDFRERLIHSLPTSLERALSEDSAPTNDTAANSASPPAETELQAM
Test: Antagonist activity against human FPR2 expressed in human HL-60 cells assessed as inhibition of WKYMVM-induced calcium mobilization preincubated for 10 mins followed by WKYMVM addition and measured every 5s for 240s by Fluo4AM dye based scanning fluorimetric analysis
Assay type: functional, cell-based
Details: time 840.0 sec

CCc1cc2c(=O)c(-c3ccccc3OC)c(C)oc2cc1OC(C)=O
inhibition: inactive

CCCc1cc2c(=O)c(-c3ccccc3OC)c(C)oc2cc1OC(C)=O
inhibition: inactive

CCCCCCc1cc2c(=O)c(-c3ccc(OC)cc3)c(C)oc2cc1NC(C)=O
inhibition: inactive

CCCCCCc1cc2c(=O)c(-c3ccccc3OC)c(C)oc2cc1OC(C)=O
inhibition: inactive

CCCCCCc1cc2c(=O)c(-c3ccc(OC)cc3)c(C)oc2cc1OC(C)=O
inhibition: inactive

CCCCCCc1cc2c(=O)c(-c3ccccc3OC)c(C)oc2cc1OCC(F)F
inhibition: inactive

CCCCCCC(=O)Oc1cc2oc(C)c(-c3ccc(OC)cc3)c(=O)c2cc1C
inhibition: inactive

CCCCCCc1cc2c(=O)c(-c3cccc(OC)c3)c(C)oc2cc1NC(C)=O
inhibition: inactive

CCCCCCc1cc2c(=O)c(-c3ccc(OC)cc3)c(C(F)(F)F)oc2cc1OC(C)=O
inhibition: inactive

CCCCCCC(=O)Oc1cc2oc(C)c(-c3ccccc3OC)c(=O)c2cc1C
inhibition: inactive

CCCc1cc2c(=O)c(-c3ccccc3OC)c(C)oc2cc1NC(C)=O
inhibition: inactive

CCCCCCc1cc2c(=O)c(-c3ccccc3OC)c(C(F)(F)F)oc2cc1OC(C)=O
inhibition: inactive

CCCCCCc1cc2c(=O)c(-c3cccc(OC)c3)c(C)oc2cc1OC(C)=O
inhibition: inactive

CCCc1cc2c(=O)c(-c3ccc(OC)cc3)c(C)oc2cc1OC(C)=O
inhibition: inactive

CCCCCCc1cc2c(=O)c(-c3ccccc3OC)c(C)oc2cc1NC(C)=O
inhibition: inactive

Calls of active or inactive are those of the source. The calls are words filed in the database; no cut-off is given here.
